Literature values as cited in patent publication US20190336490A1, “COMPOSITIONS AND METHODS FOR INCREASING REMYELINATION” (Frequency Therapeutics, Inc., priority 2018, published 2019).

Protein sequences, listed by entry. Tags and fused reporters are not part of them. Lines headed by an entry give the natural chain unless they say otherwise; changes in a name come on top.
UniProt P11229: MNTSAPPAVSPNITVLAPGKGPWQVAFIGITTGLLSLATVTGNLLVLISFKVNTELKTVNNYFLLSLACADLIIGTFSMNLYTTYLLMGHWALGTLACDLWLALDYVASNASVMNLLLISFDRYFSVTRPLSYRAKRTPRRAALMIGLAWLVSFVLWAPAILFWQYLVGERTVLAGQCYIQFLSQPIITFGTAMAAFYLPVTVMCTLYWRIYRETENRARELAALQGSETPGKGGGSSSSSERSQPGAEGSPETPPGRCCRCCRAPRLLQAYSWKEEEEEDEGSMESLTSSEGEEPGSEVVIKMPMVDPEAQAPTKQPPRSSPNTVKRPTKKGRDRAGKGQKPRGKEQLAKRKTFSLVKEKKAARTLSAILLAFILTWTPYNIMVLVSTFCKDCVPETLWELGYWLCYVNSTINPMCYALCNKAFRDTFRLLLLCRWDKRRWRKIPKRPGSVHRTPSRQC

Biological target: muscarinic M1 receptor (Homo sapiens, UniProt P11229)
Conditions: cited from earlier work

C[N+]1(C)CCN(CC(O)(c2ccccc2)C2CCCCC2)CC1 (stereo not shown) [Hexocyclium]
In vitro M1 (Conc): 1.2 nM
